Laboratory results from US10799511B2, “Methods for reducing or ameliorating mortality and/or morbidity due to chlorine inhalation” (dated 2020).

Assays:
[1] = tested on: animals exposed to toxic inhalational levels of chlorine; experiment: Ability of therapeutic agents to stabilize and/or rescue animals exposed to toxic inhalational levels of chlorine; details: toxic/high inhalational levels of chlorine
[2] = tested on: Rats exposed to chlorine (cortical EEG); experiment: Video-electroencephalogram (EEG) after chlorine inhalation; details: midazolam IM 1 mg/kg 15 min after high dose chlorine inhalation, FIGS. 5A-5E
[3] = tested on: Sprague-Dawley rats exposed to chlorine; experiment: Survival after severe chlorine inhalation; details: FIG. 7 legend

Row | Compound | ability to stabilize and/or rescue chlorine-exposed animals [1] | other results
1 | Sodium Bicarbonate | ineffective | –
2 | CN1[C@@H]2CC[C@H]1C[C@@H](OC(=O)C(CO)c1ccccc1)C2 (stereo partly drawn) | beneficial effects | –
3 | CC(CCc1ccc(O)cc1)NCCc1ccc(O)c(O)c1 (stereo not drawn) | ineffective | –
4 | Cobinamide | ineffective | –
5 | Cc1ncc2n1-c1ccc(Cl)cc1C(c1ccccc1F)=NC2 | beneficial effects | epileptiform activity (EEG) [2]: decreased epileptiform activity; epileptiform activity (EEG) ([2]; listed as Midazolam): clearly reduces epileptiform activity; survival after severe chlorine inhalation (in words) [3]: improves survival
6 | O=[N+]([O-])c1nccn1CC(O)CN1CCCCC1 (stereo not drawn) | ineffective | –
7 | Racemic epinephrine | ineffective | –
8 | 2-PAM | ineffective | –
9 | CN1[C@@H]2C[C@@H](OC(=O)[C@H](CO)c3ccccc3)C[C@H]1C1OC12 (stereo partly drawn) | beneficial effects | –
10 | Bosantan | ineffective | –
11 | COc1ccccc1OCC(O)CN1CCN(CC(=O)Nc2c(C)cccc2C)CC1 (stereo not drawn) | ineffective | –
12 | manganese(III)meso-tetrakis(N,N′-diethyl-1,3-imidazolium-2-yl)porphyrin | ineffective | –
